Source: PubChem BioAssay AID1377 (University of Pittsburgh Molecular Library Screening Center, 2008)
This is a selection; strong and weak results do not stand in their true shares. Some results for these compounds are left out of this collection, so the calls shown say nothing about other tests. Active and inactive are the calls of the source.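 How the source made its calls: active means activation, scaled between plate controls, above about 75% (limit read from the data); inactive means activation under that limit.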

Assay: rescue of L929 cells from zVAD death – primary screen (AID 1377);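 further: 0% = zVAD with DMSO and 100% = DMSO alone without zVAD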
Details: L929 zVAD necroptosis rescue, ATP luminescence, 24 h, at 10 µM, stronger effect = higher value; with zVAD 60 µM unless noted
For `CN(C)C1CCCC1OC(=O)C(O)(c1ccccc1)c1ccccc1` (stereo unspecified), the viability rescue was inactive: 0.66%. For `Cc1ccccc1C(=O)NCC1(N2CCCCC2)CCCCC1`, the viability rescue was inactive: -3.11%. In the case of `CCN1CCCC(OC(=O)C2(O)c3ccccc3C=Cc3ccccc32)C1` (stereo unspecified), the viability rescue is reported as inactive: 0.67%. In the case of `C=CCN1CCN(CCOC(=O)C(O)(c2ccccc2)c2ccccc2)CC1`, the viability rescue is reported as inactive: -1.17%. With `O=C(NCC1(N2CCCCC2)CCCCC1)c1cc([N+](=O)[O-])ccc1Cl` the viability rescue was inactive: 20.7%. With `CCN(CC)CC(C)C(C)OC(=O)C(O)(c1ccccc1)c1ccccc1` (stereo unspecified) the viability rescue was inactive: -0.51%. In the case of `CC(C)N1C(=O)CC2(CCN(CCOC(=O)C(O)(c3ccccc3)c3ccccc3)CC2)C1=O`, the viability rescue is reported as inactive: 0.52% [with zVAD 20 µM]. With `O=C(OC1CN2CCC1CC2)C(CO)(c1ccccc1)c1ccccc1` (stereo unspecified) the viability rescue was inactive: 0.02% [with zVAD 20 µM]. For `CN(C)c1cccc(C(=O)NCC2(N(C)C)CCCCC2)c1`, the viability rescue was inactive: 1.32% [with zVAD 20 µM]. In the case of `COc1ccc(Br)c(C(=O)NCC2(N3CCCCC3)CCCCC2)c1`, the viability rescue is reported as inactive: -0.91%. For `COc1cccc(C(=O)NCC2(N3CCCCC3)CCCCC2)c1`, the viability rescue was inactive: 0.69%.
